# Results taken from PubChem BioAssay AID705 (SRMLSC, 2007).
# The entries are a selection whose mix differs from that of the whole data set. The source made the active and inactive calls.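 Rule for the calls: active = growth inhibition above 25% in both replicates, a cutoff set 3 SD above the mean; inconclusive = above 25% in only one replicate; inactive = the rest.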
# Experiment: S. cerevisiae growth inhibition in permissive medium (OD615), pilot counter-assay for S. cerevisiae lifespan shortening project, permissive growth control (AID 705)
# Settings: OD615, 24 h, at 10 µM, hits give high values
# Procedure, shortened: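 System – S. cerevisiae with engineered DeaD lifespan system · Buffer or medium – SC raffinose/galactose permissive medium · Schedule – cells pre-grown 4 h, then 24 h compound exposure, 30 °C humidified · Technique – culture turbidity as optical density at 615 nm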
row,SMILES,growth inhibition
1,COC(=O)c1cc2c(s1)N=C(c1ccccc1)N(C)P2(=O)N1CCOCC1 (stereo unspecified),inactive: -6.42%
